{"sequences": {"note": "The chains behind the UniProt entries cited, without tags or fusion partners. Residues count along the entry.", "UniProt Q13224, 27-1484": "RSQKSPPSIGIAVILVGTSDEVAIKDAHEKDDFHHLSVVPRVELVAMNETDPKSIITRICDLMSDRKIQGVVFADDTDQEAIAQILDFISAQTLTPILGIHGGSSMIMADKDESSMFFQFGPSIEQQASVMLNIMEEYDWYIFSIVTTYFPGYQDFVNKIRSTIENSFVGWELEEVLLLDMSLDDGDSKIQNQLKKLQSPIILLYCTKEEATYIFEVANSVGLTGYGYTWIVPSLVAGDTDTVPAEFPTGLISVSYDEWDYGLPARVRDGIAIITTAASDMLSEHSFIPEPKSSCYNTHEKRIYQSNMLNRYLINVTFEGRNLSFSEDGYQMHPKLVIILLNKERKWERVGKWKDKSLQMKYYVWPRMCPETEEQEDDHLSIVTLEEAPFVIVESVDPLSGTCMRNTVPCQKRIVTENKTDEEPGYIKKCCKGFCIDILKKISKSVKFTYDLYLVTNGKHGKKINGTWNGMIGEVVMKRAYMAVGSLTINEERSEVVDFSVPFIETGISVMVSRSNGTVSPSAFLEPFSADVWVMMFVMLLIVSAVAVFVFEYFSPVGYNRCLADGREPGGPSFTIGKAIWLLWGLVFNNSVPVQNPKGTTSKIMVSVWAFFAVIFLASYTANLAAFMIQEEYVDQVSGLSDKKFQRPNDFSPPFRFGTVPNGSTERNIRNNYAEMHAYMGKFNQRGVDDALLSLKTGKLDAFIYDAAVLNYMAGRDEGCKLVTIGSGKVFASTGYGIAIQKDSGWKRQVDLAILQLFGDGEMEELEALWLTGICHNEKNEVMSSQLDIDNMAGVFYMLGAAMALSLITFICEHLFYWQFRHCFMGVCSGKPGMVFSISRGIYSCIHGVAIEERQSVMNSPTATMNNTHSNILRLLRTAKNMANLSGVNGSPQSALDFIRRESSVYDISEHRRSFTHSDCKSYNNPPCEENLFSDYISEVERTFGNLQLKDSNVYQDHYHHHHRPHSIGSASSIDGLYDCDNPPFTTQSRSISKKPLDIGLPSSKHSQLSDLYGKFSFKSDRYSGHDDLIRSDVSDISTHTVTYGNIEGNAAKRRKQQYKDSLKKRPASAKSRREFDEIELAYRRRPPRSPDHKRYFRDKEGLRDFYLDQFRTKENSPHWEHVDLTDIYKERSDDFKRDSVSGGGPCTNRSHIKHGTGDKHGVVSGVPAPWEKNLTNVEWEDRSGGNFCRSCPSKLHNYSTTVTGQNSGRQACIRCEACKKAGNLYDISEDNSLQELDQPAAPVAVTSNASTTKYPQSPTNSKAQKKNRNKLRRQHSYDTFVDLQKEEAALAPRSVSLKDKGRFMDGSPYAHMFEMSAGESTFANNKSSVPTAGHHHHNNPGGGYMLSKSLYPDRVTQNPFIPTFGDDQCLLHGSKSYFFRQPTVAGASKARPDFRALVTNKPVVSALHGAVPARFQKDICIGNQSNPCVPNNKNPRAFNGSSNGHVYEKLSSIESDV"}, "source": "patent US20250009730A1", "about": "(priority 2021, published 2025)", "target": "NR1/NR2B ionotropic receptors encoded by the human GRIN1/GRIN2B genes, expressed in HEK293 cells (Homo sapiens, UniProt Q05586+Q13224)", "test": "Syncropatch automated patch clamp on NR1/NR2B receptors in HEK293 cells, antagonist mode (co-applied with 2 μM glutamate and 50 μM glycine)", "format": "cell-based", "procedure": "The following patch clamp study investigates these effects on NR1/NR2B ionotropic receptors encoded by the human GRIN1/GRIN2B genes, expressed in HEK293 cells. Compounds were evaluated for functional effects on these ion channel receptors.\nThe assay was carried out using an HTS electrophysiology-based approach with the Syncropatch 384pe automated patch clamp system (Nanion), while using HEK293 cells that have been transfected with human GRIN1/GRIN2B genes to express NR1/NR2B ionotropic receptors\nHEK293 cells were transfected with the appropriate ion channel or receptor cDNA(s) encoding NR1 and NR2B. Stable transfectants were selected using the G418 and Zeocin-resistance genes incorporated into the expression plasmid. Selection pressure was maintained with G418 and Zeocin in the culture medium. Cells were cultured in Dulbecco's Modified Eagle Medium/Nutrient Mixture F-12 (D-MEM/F-12) supplemented with 10% fetal bovine serum, 100 U/ml penicillin G sodium, 100 ug/mL streptomycin sulfate, 100 ug/mL Zeocin, 5 ug/mL blasticidin and 500 ug/mL G418.\nBefore testing, cells in culture dishes were washed twice with DPBS solution. Immediately before testing, the cells were washed in HB-PS containing 10 mM CaCl2 to improve sealing.\nCompounds were evaluated in 8-point concentration-response format (4 replicate wells/concentration). The compound formulations were loaded in e.g. a 384-well compound plate and placed in the Syncropatch plate well.\nThe agonist positive control (L-glutamate) was applied at eight (8) concentrations (0.03-100 μM; n=4, where n=the number of replicates) together with 50 μM glycine. […]\nActivation was calculated in two ways based on the following measurements: • 1. peak current amplitudes, and • 2. current amplitude 4-5 seconds after agonist addition.\nData acquisition was performed via the […] and data was analyzed using Microsoft Excel™ (Microsoft™ Corp., Redmond, WA). […]\nwhere Base is the response in the absence of test article (vehicle treatment), Max is the maximum response at high concentrations, xhalf is the EC50, or IC50, the concentration of test compound producing either half-maximal activation or inhibition, and rate is the Hill coefficient. […] No assumptions about the fit parameters were made; the fit parameters were determined by algorithm. Raw reduced data was analyzed using Microsoft Excel Office 365 ProPlus (Microsoft™ Corp., Redmond, WA) and XLfit (Excel addon, Copyright© IDBS 2016). […]\nThe following patch clamp study investigates these effects on NR1/NR2B ionotropic receptors encoded by the human GRIN1/GRIN2B genes, expressed in HEK293 cells. Compounds were evaluated for functional effects on these ion channel receptors. […]", "note": "Where two headings read alike, the source gives them in different places.", "data": [{"substance": "Ifenprodil tartrate", "values": [{"measurement": "IC50", "setting": "peak current amplitude (PCA)", "value": 1040, "unit": "nM"}, {"measurement": "NR1/NR2B PCA antagonist HillSlope", "setting": "peak current amplitude (PCA)", "value": 0.89}, {"measurement": "NR1/NR2B PCA antagonist HillSlope", "setting": "steady state current amplitude (SSC) table", "value": 0.79}, {"measurement": "IC50", "setting": "steady state current amplitude (SSC) table, 4th-6th second after agonist, read-out: NR1/NR2B PCA antagonist IC50", "value": 310, "unit": "nM"}]}]}
